In paper PMC11322472, “Enhancing [^177Lu]Lu-DOTA-TATE therapeutic efficacy in vitro by combining it with metronomic chemotherapeutics” (EJNMMI Research, 2024):

Tests used:
Assay type in all cases: cell-based, human
U2OS + SSTR2A cells [1] = conditions: label = 24 h pre-treatment (152 µg/mL hydroxyurea, 4 ng/mL gemcitabine, 200 ng/mL triapine), 4 h recovery, [^177Lu]Lu-DOTA-TATE 24 h, 25 nM, MTT at day 7, mean ± SD, N = 3
Procedure: Excess MTT was then removed. Formazan crystals were dissolved with 50 μL/well in dimethylsulfoxide (DMSO) for 2 min at room temperature (RT) under gentle agitation. Well absorbance at 570 nm was then measured on a UV/V is absorbance microplate reader (SPECTROstar® Nano, BMG LABTECH). Metabolic viability, following signal-to-background correction, was calculated as the percentage signal in treated cells normalised to the signal in untreated cells.

BON1 + SSTR2A cells = test: Cell cycle post chemotherapeutics (EdU/DAPI flow cytometry); conditions: asynchronous BON1 + SSTR2A cultures; 24 h treatment (152 µg/mL hydroxyurea, 2 ng/mL gemcitabine, 100 ng/mL triapine), 4 h after removal; untreated 35.8 ± 2.6%; mean ± SD, N = 3
Procedure: (§1) All studies were performed in cells at 4 h after removal of each chemotherapeutics treatment.
(§2) For cell cycle studies, cells were pulse-labelled with medium containing 20 µM 5-ethynyl-2’-deoxyuridine (EdU, Click-iT™ Plus EdU Flow Cytometry Assay Kit, Invitrogen) for 1 h prior to harvesting by Accutase detachment. Cells were then fixed, permeabilized, and blocked before 30-minute incubation at RT following manufacturer instructions and labelled with Alexa Fluor™-488/-647-labelled-picolyl azide. Cells were further washed, resuspended in 4′,6-diamidino-2-phenylindole (DAPI; 1:1,000 dilution in PBS) and stained for 20 min prior to dilution in blocking solution and analysis (BD LSRFortessa™). Results were analyzed using FlowJo (v10.9.0).

U2OS + SSTR2A cells [2] = test: as above; conditions: asynchronous U2OS + SSTR2A cultures; 24 h treatment (152 µg/mL hydroxyurea, 4 ng/mL gemcitabine, 200 ng/mL triapine), 4 h after removal; untreated 45.5 ± 3.3%; mean ± SD, N = 3
Procedure: as §1, §2

[3] = system: SSTR2A expression of BON1 + SSTR2A cells; test: SSTR2A expression post chemotherapeutics (flow cytometry); conditions: 24 h chemotherapeutic (152 µg/mL hydroxyurea, 2 ng/mL gemcitabine, 100 ng/mL triapine), 4 h after treatment, mean ± SD, N = 3–9
Procedure: as §1
(§3) For SSTR2A expression studies, 1.5 × 10^5 U2OS/U2OS + SSTR2A and BON1/BON1 + SSTR2A cells were seeded in 6-well plates and placed in the incubator to adhere overnight. Cells were treated with chemotherapeutics for 24 h at the same concentrations stated above. Determination of SSTR2A expression levels by flow cytometry post chemotherapeutics was performed as described in the Supplementary methods.
(§4) For flow cytometry analysis of SSTR2A expression, cells (1x10^6) were detached from culture vessels and pelleted by centrifugation (1,000 g for 2 min) and the media aspirated. Cells were then resuspended in 4% v/v PFA and fixed at RT for 10 min. After, cells were pelleted by centrifugation and excess PFA aspirated prior to resuspension in 0.5% v/v Triton™ X-100 (Thermo Scientific™) and permeabilised at RT for 10 minutes. Cells were once again pelleted by centrifugation and excess Triton™ X-100 removed prior to resuspension in blocking solution (PBS containing 2.5 mM EDTA and 2% w/v BSA). Cells were stained with UMB1 primary antibody (1:400 dilution, Abcam) for 30 minutes at RT before pelleting cells and aspirating excess antibody. Cells were washed once with blocking solution prior to repeating pelleting and aspiration. Cells were then resuspended and incubated with Alexa Fluor™ 647 secondary antibody (1:1000 dilution, Abcam) for 30 minutes at RT, protected from light. After incubation, excess antibody was removed prior to a final wash with blocking solution. Cells analysed using the BD LSRFortessa™. Results are expressed as the median fluorescence intensity (MFI) of the overall acquired signal, analysed using FlowJo version 10.9.0 (BD, USA).

[4] = system: SSTR2A expression of U2OS + SSTR2A cells; test: as above; conditions: 24 h chemotherapeutic (152 µg/mL hydroxyurea, 4 ng/mL gemcitabine, 200 ng/mL triapine), 4 h after treatment, mean ± SD, N = 3–9
Procedure: as §1, §3, §4

SMILES	percentage viability after [^177Lu]Lu-DOTA-TATE in chemotherapeutic pre-treated cells (U2OS + SSTR2A cells [1])	S-phase sub-population (BON1 + SSTR2A cells)	S-phase sub-population (U2OS + SSTR2A cells [2])	mean increase in SSTR2A expression from baseline expression levels [3]	mean increase in SSTR2A expression from baseline expression levels [4]
Nc1ccn([C@@H]2O[C@H](CO)[C@@H](O)C2(F)F)c(=O)n1 [Gemcitabine, gemcitabine]	24.5 ± 5.4%	82.2 ± 8.2%	85.9 ± 1.9%	39.6 ± 45.4%	20.8 ± 29.7%
NC(=O)NO [Hydroxyurea, hydroxyurea]	18.8 ± 5.2%	86.4 ± 2.2%	84.8 ± 2.5%	48.8 ± 12.0%	46.9 ± 28.2%
NC(=S)N/N=C/c1ncccc1N [Triapine, triapine]	23.6 ± 7.3%	88.0 ± 3.6%	86.6 ± 2.2%	119.3 ± 40.9%	36.2 ± 32.4%
